The text below walks through data of patent US20240226072A1 (Stichting Het Nederlands Kanker Instituut, priority 2022, published 2024).

SMILES strings stand for the structures.

Series [1] in a line: Plasma pharmacokinetics and tissue distribution 2 h after oral cabazitaxel 10 mg/kg with vehicle or 25 mg/kg ritonavir in wild-type, Oatp1a/1b−/−, Oatp1a/1b/2b1−/−, OATP1B1- and OATP1B3-transgenic mice. The series is classed as in vivo. The settings on record: cabazitaxel 10 mg/kg oral, vs wild-type vehicle; for Fold change Pbrain (h^−1): ritonavir 25 mg/kg oral. On the procedure: All animals were fasted 2 to 3 hours prior to the start of the experiment to minimize variation in absorption after oral administration. […] Subsequently, cardiac puncture was performed with a heparinized needle and syringe collecting a final blood sample. […] All samples were stored at −30° C. until analysis.
Differences were considered statistically significant when P<0.05. All data are presented as geometric mean±SD.

For series [2] the following is noted: male, Cyp3aXAV (human CYP3A in Cyp3a−/−, FVB background), mouse, in vivo, po, 10 mg/kg. On the procedure: The Jevtana (10 mg/mL) solution contains 0.26 mg/mL polysorbate 80 and 15% (w/v) ethanol, and is adjusted to pH 2-6 with citric acid. […] The stock solution was further diluted 5-fold with water to reach a 2.5 mg/mL dosing solution for oral administration. The vehicle solution only consists of polysorbate 80, ethanol and water (1:1:8, v/v/v). […] All dosing solutions were prepared freshly on the day of the experiment.
At the termination time point of 24 hours, mice were anesthetized using an isoflurane evaporator with 3% isoflurane with 0.8 L/min air and 0.3 L/min oxygen. A final blood sample was taken using cardiac puncture, using Eppendorf tubes previously prepared with heparin as an anticoagulant. Subsequently, the anesthetized mice were sacrificed by cervical dislocation and the tissues of interest were collected. Brain, liver, spleen, kidney, small intestine, and testis were collected. […]
Pharmacokinetic parameters were estimated by non-compartmental analysis using the software package of PK solutions 2.0.2 (SUMMIT, Research Service). The area under the curve (AUC) of the plasma-concentration time curve for all the compounds was calculated using the linear trapezoidal rule without extrapolating to infinity. […] The statistics for the comparison of multiple groups were calculated with the one-way analysis of variance (ANOVA), whereas Sidak's post hoc correction was performed. […]

For the molecule `CO[C@H]1C(=O)[C@]2(C)[C@@H](OC)C[C@H]3OC[C@@]3(OC(C)=O)[C@H]2[C@H](OC(=O)c2ccccc2)[C@]2(O)C[C@H](OC(=O)[C@H](O)[C@@H](NC(=O)OC(C)(C)C)c3ccccc3)C(C)=C1C2(C)C` [cabazitaxel], the “Fold change Pbrain (h^−1)” value in series [1] (OATP1B1-transgenic mice) stood at 2.38; in series [1] (Oatp1a/1b/2b1−/− mice), 2.23. Also, in series [1] (Oatp1a/1b−/− mice, vehicle), the “Fold change Cliver” value was determined as 1.02. This molecule returned an AUC0-24 h in series [2] of 1241 nM·h.
